# In PubChem BioAssay AID1044 (The Scripps Research Institute Molecular Screening Center, 2008):
# Chains of the proteins cited; added tags and fusions are not shown.
# UniProt P21453, whole entry, looked up: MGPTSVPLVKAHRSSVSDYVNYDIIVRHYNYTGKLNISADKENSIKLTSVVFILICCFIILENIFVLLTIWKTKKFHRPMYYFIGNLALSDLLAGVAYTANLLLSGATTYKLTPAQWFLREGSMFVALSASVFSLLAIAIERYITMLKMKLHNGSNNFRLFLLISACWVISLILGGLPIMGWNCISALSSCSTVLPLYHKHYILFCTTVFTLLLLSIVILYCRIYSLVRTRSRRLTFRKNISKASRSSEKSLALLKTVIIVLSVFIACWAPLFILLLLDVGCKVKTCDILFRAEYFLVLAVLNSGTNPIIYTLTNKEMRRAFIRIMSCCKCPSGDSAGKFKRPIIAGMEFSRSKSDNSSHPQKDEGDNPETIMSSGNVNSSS
# The list shows a part of the results, in another mix than the full data. The source made the active and inactive calls. Rule as the data show it: active = activation above about 80%; inactive = the rest.
# Molecular target: Sphingosine 1-phosphate receptor 1 (Homo sapiens) (UniProt P21453)
# Assay: activates the human S1P1 receptor (AID 1044)
# Conditions: S1P1 agonist cell-based reporter assay; at 4.5 µM; stronger effect = higher value
row,SMILES,activation
1,O=C(OC1CN2CCC1CC2)c1cccc([N+](=O)[O-])c1 (configuration not stated),inactive: -12%
2,CCOC(=O)/C(=N/Nc1ccc([N+](=O)[O-])cc1)N1CC1,inactive: -1.01%
